Data taken from ChEMBL document CHEMBL5329219, “α-Aminophosphonate inhibitors of metallo-β-lactamases NDM-1 and VIM-2” (RSC Med Chem, 2023).
Calls of active or inactive are those of the source. The rule behind the calls is not given here.

Chains of the proteins cited; added tags and fusions are not shown. Lines headed by an entry give the natural chain unless they say otherwise; changes in a name come on top.
UniProt C7C422: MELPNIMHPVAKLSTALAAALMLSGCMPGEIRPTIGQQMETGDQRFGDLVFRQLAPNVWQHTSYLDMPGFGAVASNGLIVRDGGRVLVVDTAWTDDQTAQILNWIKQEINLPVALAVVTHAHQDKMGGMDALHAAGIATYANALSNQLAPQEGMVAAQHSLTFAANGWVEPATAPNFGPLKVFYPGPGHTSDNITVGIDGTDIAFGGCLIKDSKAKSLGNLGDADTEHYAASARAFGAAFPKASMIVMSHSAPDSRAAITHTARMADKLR

molecular target: Metallo-beta-lactamase type 2 (Bacteria) (UniProt C7C422); experiment: Inhibition of bacterial metallo-beta-lactamase NDM-1 preincubated for 5 mins followed by imipenem addition by spectrophotometer analysis
Outline: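 Purified NDM-1 (10 nM) in 50 mM HEPES pH 7.2 with 100 μM ZnCl2, 2.5% DMSO and 400 μg ml−1 BSA, preincubated with inhibitor (twelve concentrations, 0–800 μM) at 25 °C for 5 min. Reaction started with 100 μM imipenem and absorbance read at 300 nm. Triplicates; IC50 from initial velocities by log[inhibitor] vs. response fit.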

Row | SMILES | inhibition
1 | Cl.O=C(NC(C1CCCCN1)P(=O)(O)O)c1ccsc1 (stereo not drawn) | inactive
2 | Cl.O=C(Cc1ccsc1)NC(C1CCCCN1)P(=O)(O)O (stereo not drawn) | inactive
3 | Cl.O=C(NC(C1CCCCN1)P(=O)(O)O)c1cccs1 (stereo not drawn) | inactive
